Values quoted from earlier work in PMC7176432, “Single-molecule functional anatomy of endogenous HER2-HER3 heterodimers” (eLife, 2020).

Target: eGFP (Aequorea victoria) [GFP: P42212]
Details: cited from earlier work

eGFP (from UniProt P42212)
Kd: 110 µM
